Columns and labels:
[1] = test system: NADPH quinone oxidoreductase (NQO1); assay: NRF2 target gene activation: NQO1 protein levels by Western Blot in HaCaT keratinocytes; type: cell-based, human; conditions: HaCaT cells, 10 μM compound, 6 h
Description: (§1) Molecules that block the degradatior of NRF2 serve as NRF2 activators. This has the effect of stabilizing NRF2 protein levels and upregulating target gene levels, such as NQO1. […] CDDO is a positive control compound that activates NRF2 through an electrophilic mechanism. […] HaCat Cells were treated with 10 μM compound unless otherwise indicated.
(§2) Spontaneously immortalized human keratinocytes (HaCaT cell line) were grown in Dubecco's modified Eagle's medium (DMEM) with 10% fetal bovine serum and 1% antibiotics. […] Cells were lysed in a 20 mM Tris (pH 7.5) buffer containing 150 mM NaCl, 1 mM EDTA, 1 mM EGTA, 1% Triton X-100, 2.5 mM sodium pyrophosphate, 1 mM Na3VO4, 5 mM β-glycerophosphate, and 1 μg/mL leupeptin. Equal amount of protein (˜40 μg) was separated on a 10% SDS-PAGE, blotted on the membrane, and probed with antiNRF2, or anti-NQO1 antibody. […] CDDO is a positive control compound that activates NRF2 through an electrophilic mechanism.

[2] = test system: NRF2; assay: NRF2 stabilization by Western Blot in HaCaT keratinocytes; type: cell-based, human; conditions: HaCaT cells, 10 μM compound, 6 h, relative to vehicle (DMSO) control
Description: as §1, §2

## COc1ccc(S(=O)(=O)N(CC(F)(F)F)c2cnc(N(CC(=O)O)S(=O)(=O)c3ccc(OC)cc3)c3ccccc23)cc1 [Compound B0, N-(4-((4-methoxy-N-(2,2,2-trifluoroethyl)phenyl)sulfonamido)isoquinolin-1-yl)-N-((4-methoxyphenyl)sulfonyl)glycine]
[1]
  levels of NQO1: increase the levels of NQO1
[2]
  stabilization of NRF2 expression: stabilize NRF2 expression
